{
  "sequences": {"note": "The chains behind the UniProt entries cited, without tags or fusion partners.", "UniProt O60674, whole entry": "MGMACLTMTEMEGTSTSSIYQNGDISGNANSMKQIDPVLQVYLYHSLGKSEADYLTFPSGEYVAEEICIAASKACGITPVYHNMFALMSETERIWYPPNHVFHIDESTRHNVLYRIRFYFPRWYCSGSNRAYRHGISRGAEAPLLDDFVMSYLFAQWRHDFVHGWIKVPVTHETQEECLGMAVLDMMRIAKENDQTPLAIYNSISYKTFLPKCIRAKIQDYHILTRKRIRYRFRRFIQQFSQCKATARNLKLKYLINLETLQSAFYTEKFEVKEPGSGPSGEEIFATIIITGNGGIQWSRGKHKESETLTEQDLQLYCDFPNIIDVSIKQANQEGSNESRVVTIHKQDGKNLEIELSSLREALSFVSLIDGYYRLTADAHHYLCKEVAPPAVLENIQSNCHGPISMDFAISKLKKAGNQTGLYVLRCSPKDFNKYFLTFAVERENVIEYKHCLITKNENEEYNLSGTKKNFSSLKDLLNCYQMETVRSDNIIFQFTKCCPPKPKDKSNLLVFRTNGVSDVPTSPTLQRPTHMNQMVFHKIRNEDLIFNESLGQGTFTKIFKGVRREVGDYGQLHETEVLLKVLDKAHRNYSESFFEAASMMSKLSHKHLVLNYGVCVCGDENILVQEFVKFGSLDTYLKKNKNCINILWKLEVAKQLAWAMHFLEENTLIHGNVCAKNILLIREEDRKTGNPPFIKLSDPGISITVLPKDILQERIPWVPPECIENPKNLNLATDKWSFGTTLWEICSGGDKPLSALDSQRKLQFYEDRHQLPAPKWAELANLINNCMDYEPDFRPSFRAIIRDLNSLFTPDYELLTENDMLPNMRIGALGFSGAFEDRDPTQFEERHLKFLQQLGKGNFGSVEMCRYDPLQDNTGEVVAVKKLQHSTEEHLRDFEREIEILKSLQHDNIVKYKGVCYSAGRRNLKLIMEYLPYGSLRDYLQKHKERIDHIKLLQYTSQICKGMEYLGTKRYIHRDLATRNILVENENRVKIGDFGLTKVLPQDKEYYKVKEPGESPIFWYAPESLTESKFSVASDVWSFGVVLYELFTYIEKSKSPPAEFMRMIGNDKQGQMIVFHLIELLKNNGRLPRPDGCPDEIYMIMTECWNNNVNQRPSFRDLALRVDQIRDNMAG", "UniProt P29597, whole entry": "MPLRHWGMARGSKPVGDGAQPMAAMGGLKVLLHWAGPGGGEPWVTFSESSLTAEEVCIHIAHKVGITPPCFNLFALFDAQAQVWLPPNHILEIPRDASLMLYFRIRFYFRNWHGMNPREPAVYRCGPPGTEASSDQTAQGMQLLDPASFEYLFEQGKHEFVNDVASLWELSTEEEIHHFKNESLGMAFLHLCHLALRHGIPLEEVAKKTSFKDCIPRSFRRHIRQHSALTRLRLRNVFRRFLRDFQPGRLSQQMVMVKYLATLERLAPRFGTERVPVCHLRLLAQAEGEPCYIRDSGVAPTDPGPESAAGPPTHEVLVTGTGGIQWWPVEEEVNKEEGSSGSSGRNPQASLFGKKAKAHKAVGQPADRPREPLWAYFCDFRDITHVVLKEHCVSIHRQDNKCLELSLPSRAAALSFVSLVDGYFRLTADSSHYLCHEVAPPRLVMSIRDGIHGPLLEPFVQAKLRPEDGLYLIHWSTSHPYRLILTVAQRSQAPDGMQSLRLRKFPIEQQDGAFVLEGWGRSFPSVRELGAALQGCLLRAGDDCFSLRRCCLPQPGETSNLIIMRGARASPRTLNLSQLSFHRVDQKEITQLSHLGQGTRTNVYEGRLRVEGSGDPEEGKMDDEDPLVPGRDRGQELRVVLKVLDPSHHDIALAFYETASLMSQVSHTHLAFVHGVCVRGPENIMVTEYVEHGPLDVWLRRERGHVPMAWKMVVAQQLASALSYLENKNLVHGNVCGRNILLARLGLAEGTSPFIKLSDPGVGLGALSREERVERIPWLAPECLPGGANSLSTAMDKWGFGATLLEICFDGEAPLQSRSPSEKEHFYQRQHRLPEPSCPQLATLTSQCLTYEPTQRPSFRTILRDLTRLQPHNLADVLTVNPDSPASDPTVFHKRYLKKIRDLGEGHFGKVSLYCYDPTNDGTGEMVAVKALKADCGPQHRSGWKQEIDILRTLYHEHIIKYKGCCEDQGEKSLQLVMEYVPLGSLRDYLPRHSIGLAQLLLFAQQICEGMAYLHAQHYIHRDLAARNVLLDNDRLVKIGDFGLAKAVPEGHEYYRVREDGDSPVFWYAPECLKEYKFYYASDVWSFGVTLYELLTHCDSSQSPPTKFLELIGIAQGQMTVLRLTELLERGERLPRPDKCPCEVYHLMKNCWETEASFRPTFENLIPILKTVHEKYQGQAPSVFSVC"},
  "source": "patent US10968236B2",
  "about": "“TYK2 inhibitors and uses thereof” (Nimbus Lakshmi, Inc., priority 2015, dated 2021)",
  "key": {"[1]": {"system": "IL-12 induced pSTAT4 (Tyk2-pSTAT4)", "assay": "IL-12 Induced pSTAT4 in human PBMC", "conditions": "read-out: Tyk2-pSTAT4 EC50, IL-12 1.7 ng/mL", "procedure": "IL-12 Induced pSTAT4 in human PBMC. Human PBMC are isolated from buffy coat and are stored frozen for assays as needed. Cells for assay are thawed and resuspended in complete media containing serum, then cells are diluted to 1.67 E6 cells/ml so that 120 μl per well is 200,000 cells. 15 μl of compound or DMSO is added to the well at the desired concentrations and incubated at 1 hr at 37 C. 15 μl of stimulus (final concentration of 1.7 ng/mL IL-12) is added for 30 minutes prior to pSTAT4 and total STAT4 analysis using cell lysates prepared and analyzed by MSD reagents as per manufacturer protocol. The final DMSO concentration of compound in the assay is 0.1%.\n(§1) The compound numbers correspond to the compound numbers in Table 1. Compounds having an activity designated as “A” provided an EC50≤2 μM; compounds having an activity designated as “B” provided a EC50 of 2-20 μM, and compounds having an activity designated as “C” provided an EC50>20 μM."}, "[2]": {"target": "JAK2 (Homo sapiens (Human), UniProt O60674)", "assay": "JAK2 activity inhibition assay (radioactive kinase / Caliper assay)", "conditions": "read-out: JAK2 Ki", "procedure": "(§2) Peptide substrate, [KKSRGDYMTMQIG], (20 μM) is prepared in reaction buffer (20 mM Hepes pH 7.5, 10 mM MgCl2, 1 mM EGTA, 0.02% Brij35, 0.02 mg/mL BSA, 0.1 mM […], 2 mM DTT, 1% DMSO. TYK2 (Invitrogen) kinase is added, followed by compounds in DMSO. 33PATP is added to initiate the reaction in ATP at 10 μM. Kinase reaction is incubated for 120 min at room temp and reactions are spotted onto P81 ion exchange paper (Whatman #3698-915), and then washed extensively in 0.75% phosphoric acid, prior to reading the radioactivity counts. For JAK2 (Invitrogen) kinase assay the peptide substrate poly[Glu:Tyr] (4:1), 0.2 mg/ml is used, in the reaction carried out the same as for TYK2.\n(§3) The caliper machine employs an off chip mobility shift assay to detect phosphorylated peptide substrates from kinase assays, using microfluidics technology. The assays are carried out at ATP concentration equivalent to the ATP Km, and at 1 mM ATP. Compounds are serially diluted in DMSO then further diluted in assay buffer (25 mM HEPES, pH 7.5, 0.01% Brij-35, 0.01% Triton, 0.5 mM EGTA). […] Reaction was incubated at 28° C. for 25 min and then added 25 ul stop buffer (100 mM HEPES, 0.015% Brij-35, 50 mM EDTA), followed by reading with Caliper. […]"}, "[3]": {"system": "GM-CSF induced pSTAT5 (JAK2-pSTAT5)", "assay": "GM-CSF Induced pSTAT5 in human PBMC", "conditions": "read-out: JAK2-pSTAT5 EC50, GM-CSF 5 ng/mL", "procedure": "GM-CSF Induced pSTAT5 in human PBMC. Cells are prepared for analysis as in the above procedure and 15 μl of GM-CSF (final concentration 5 ng/mL) is added for 20 minutes prior to pSTAT5 and total STAT5 analysis using cell lysates prepared and analyzed by MSD reagents as per manufacturer protocol. The final DMSO concentration of compound in the assay is 0.1%.\nas §1"}, "[4]": {"target": "TYK2 (Homo sapiens (Human), UniProt P29597)", "assay": "Tyk2 activity inhibition assay (radioactive kinase / Caliper assay)", "conditions": "read-out: Tyk2 Ki", "procedure": "as §2, §3"}},
  "data": [
    {"smiles": "N#Cc1cccc(F)c1-c1cc(Nc2ccc(N3CCC4(CC3)CC4)cn2)c2c(n1)CNC2=O", "values": [
      {"measurement": "EC50", "setting": "[1]", "value": "< 2000", "unit": "nM"},
      {"measurement": "Ki", "setting": "[2]", "value": "< 10", "unit": "nM"},
      {"measurement": "EC50", "setting": "[3]", "value": "2000 to 20000", "unit": "nM"},
      {"measurement": "Ki", "setting": "[4]", "value": "< 10", "unit": "nM"}
    ]}
  ]
}
